Data published in patent publication US9212153B2, “Inhibitors of beta-secretase” (Vitae Pharmaceuticals, Inc., priority 2009, dated 2015).

Target: truncated human beta-secretase (residues 1-458, His6-tagged at the C-terminus) (Homo sapiens (Human), UniProt P56817)
Test: BACE enzyme assay (fluorescence quench, Example 434A)
Type: biochemical

`CN(C)C(=O)C1=CCC2(CC1)Cc1ccc(-c3cccc(C#N)c3)cc1C21N=C(N)N(C)O1` (stereo not shown) [Compound 458] gave a pIC50 of 5.43.

pIC50: −log10 of the molar value.
